Measured values from US9957273B2, “5-substituted 7- [4-(2-pyridyl)phenylmethylamino] -3-isopropylpyrazolo4,3-D]pyrimidine derivatives, use thereof as medicaments, and pharmaceutical compositions” (USTAV EXPERIMENTALNI BOTANIKY AV CR, V.V.I., priority 2015, dated 2018).

Sequences of proteins named here, by UniProt entry; tags and fusion partners are left off.
UniProt Q00535, whole entry: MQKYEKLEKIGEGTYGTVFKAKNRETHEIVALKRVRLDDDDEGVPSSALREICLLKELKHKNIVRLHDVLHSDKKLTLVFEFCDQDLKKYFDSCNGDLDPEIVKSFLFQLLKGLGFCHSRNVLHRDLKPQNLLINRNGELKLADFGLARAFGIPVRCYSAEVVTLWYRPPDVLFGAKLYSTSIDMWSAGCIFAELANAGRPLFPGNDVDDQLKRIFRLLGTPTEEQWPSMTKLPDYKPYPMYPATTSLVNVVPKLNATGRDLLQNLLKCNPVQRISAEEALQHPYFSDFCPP

These compounds were tested against T1, CDK5/p35 (Homo sapiens, UniProt Q00535) (assay: CDK5/p35 kinase inhibition (33P-ATP, histone H1)). Conditions: 0.15 μM ATP.
T1 construct: purchased ProQinase GmbH
Assay type: biochemical

IC50 | Structure (SMILES)
0.005 µM | CC(C)c1[nH]nc2c(NCc3ccc(-c4ccccn4)cc3)nc(NC[C@@H](C)O)nc12 [Compound 27]
0.009 µM | CC[C@H](CO)Nc1nc(NCc2ccc(-c3ccccn3)cc2)c2n[nH]c(C(C)C)c2n1 [Compound 83]
0.021 µM | CC[C@@H](CO)Nc1nc(NCc2ccc(-c3ccccn3)cc2)c2n[nH]c(C(C)C)c2n1 [Compound 84]
